# Assay results as given in PubChem BioAssay AID589 (National Center for Advancing Translational Sciences (NCATS), 2007).
# This is a selection; strong and weak results do not stand in their true shares. Some results for these compounds are left out of this collection, so the calls shown say nothing about other tests. Results filed as inconclusive are left out. Active and inactive are the calls of the source. Cut-off read from the data, not from the text of the source: active = max dye-equivalent concentration above about 10 nM; inconclusive = mostly about 1.1 nM to 9.6 nM; inactive = weaker than that.
# Experiment: qHTS Assay for Spectroscopic Profiling in 4-MU Spectral Region
# Conditions: compound autofluorescence, 340/450 nm, 4-MU equivalents
# Description: NIH Molecular Libraries Screening Centers Network [MLSCN] NIH Chemical Genomics Center [NCGC] […] Occasionally, the artifactual effect may originate from the compounds own spectral or other biophysical properties which generally tend to track its assay concentration. Pre-screening/profiling the library with respect to the compounds spectral properties should help one exclude false positives early on. While the most informative fluorescent profiling data set is obtained by performing a full excitation and emission scan of each well by using a monochromator-based plate reader, such an approach is practical only on a very limited scale as scanning each well requires long time. An alternative approach, applied here, is to perform plate reader scans using selected excitation and emission wavelength pairs to generate a multidimensional relational database that correlates compound concentration and the respective relative fluorescence intensity at a given wavelength set. A standard curve of 4-methylumbelliferone (4-MU) present on each plate as six-point concentration series, was used to compute a normalized fluorescence response, termed dye-equivalent concentration, for each compound at each concentration.
# NCGC Assay Protocol Summary: Buffer: 100 mM Tris buffer, pH 8.0 Dye standard plate: The wells in columns 1 through 4 of a Kalypsys polypropylene 1536-well compound plate were filled with standard solutions of fluorophore corresponding to the spectral region of interest. Solutions of 4-MU were placed in the following wells: A1, B1: 3 mM, A2, B2: 300 uM, A3, B3: 30 uM, A4, B4: zero (DMSO), C1, D1: 3 uM, C2, D2: 900 nM, C3, D3: 300 nM, C4, D4: zero (DMSO). Assay Steps: Six uL of buffer were dispensed to 1536-well Greiner black plates. Compounds and dye standards (23 nL) were transferred via Kalypsys PinTool. The plates were incubated for 15 min at room temperature, and then read on ViewLux (Perkin-Elmer) High-throughput CCD imager using 340 nm and 450 nm excitation and emission filter set. Keywords: NIH Roadmap, MLSCN, MLI, MLSMR, qHTS, NCGC, Fluorescent Profiling, 4MU, 4-MU
row,Structure (SMILES),outcome
1,C=C(C)C#C[C@@](O)(C(=O)OC1CCN(C)CC1)c1ccccc1,inactive
2,O=C(OC1CN2CCC1CC2)C(CO)(c1ccccc1)c1ccccc1 (centres undefined),inactive
3,CN1CC[C@H](OC(=O)[C@](O)(c2ccccc2)C2CCCC2)C1,inactive
4,CN1CCC[C@H](OC(=O)[C@](O)(c2ccccc2)C2CCCC2)C1,inactive
